We go through one substance from patent US4075332A (priority 1976, dated 1978).

For one assay, the system named is Mexican bean beetle. Description: Mexican Bean Beetle larvae test (treated bean leaves). As to conditions: Table IX.
In another assay the test system is House fly. Briefly: Housefly spray test. As to conditions: Table IX, 2880 min.
Another assay relates to Spider mites. Description: Mites, Contact. As to conditions: Table IX, contact/systemic not stated.
Another assay relates to Corn rootworm larvae. Briefly: Corn Root Worm soil test. As to conditions: Table IX, 7200 min.
The test system of another assay is Bean aphids. Description: Aphid, Contact. As to conditions: Table IX, contact/systemic not stated, 2880 min.
The next assay has as its system Southern army worm. Briefly: Southern Army Worm test (treated bean leaves). As to conditions: Table IX.

Regarding “O-Ethyl S-n-Propyl S'-3-n-Propylthiopropyl Dithiophosphate”, the “Mortality Produced at 50 ppm, % - Mexican Bean Beetles” value with Mexican bean beetle came out at 100%. The “Mortality Produced at 50 ppm, % - Houseflies” value with House fly was determined as 100%. Besides, the “Mortality Produced at 50 ppm, % - Spider Mites” value with Spider mites was found to be 100%. Further, the “Corn Rootworm Mortality, % at 2.5 ppm” value with Corn rootworm larvae worked out at 0%. Also, in the assay on Bean aphids, the “Mortality Produced at 50 ppm, % - Bean Aphids” value is given as 100%. The “Mortality Produced at 50 ppm, % - Southern Army Worm” value in the assay with Southern army worm turned out to be 100%.
